According to patent US20020039725A1, “Fish hatching method and apparatus” (published 2002):

Experiments:
Nothobranchius guentheri = assay: Rapid killifish 24 hour acute toxicity test with newly hatched fry
Selenastrum capricornium = details: data from [13], median values of literature citations; cited from earlier work
Daphnia magna = details: data from [13], median values of literature citations; cited from earlier work
Pimephales promelas = details: cited from earlier work

For `Cc1c([N+](=O)[O-])cc([N+](=O)[O-])cc1[N+](=O)[O-]`, the “N. guentheri 24-HR LC50” value (Nothobranchius guentheri; Example 4 table, trimmed Spearman-Karber) was 6.33 mg/L, the “N. guentheri 24-HR EC50” value (Nothobranchius guentheri; Example 4 table, trimmed Spearman-Karber (moving average for TNT, SDS)) was 3.34^c mg/L and the “N. guentheri 24-h EC50” value (Nothobranchius guentheri; median effective concentration (stress), 24 hours, 25° C., trimmed Spearman-Karber unless noted (moving-average for 2,4-D, SDS)) was 3.4 mg/L. For the same compound, the “N. guentheri 24-h LC50” value (Nothobranchius guentheri; median lethal concentration (death), 24 hours, fry 24 h post hatch, 25° C., trimmed Spearman-Karber unless noted) was 6.3 mg/L, the “S. capricornium 96-h EC50” value (Selenastrum capricornium) was 2.0 mg/L and the “D. magna 48-h LC50” value (Daphnia magna) was 12 mg/L. The “P. promelas 96-hr LC50” value (Pimephales promelas; Example 4 table, mean LC50 from Toussaint et al., 1995) was 3.1 mg/L and the “P. promelas 96-h LC50” value (Pimephales promelas; data from [13], median values of literature citations) was 3.1 mg/L.

Only a part of the results on these compounds is given; other tests are left out. Marks after values point to notes of the source that are not given here.
